# Columns and labels:
# [1] = test system: rats subjected to temporary MCAo; test: Infarct areas and volumes after temporary MCAo; format: in vivo, Sprague-Dawley rats
# Description: The present invention arose from a series of laboratory investigations wherein the effect of a DHA-Albumin complex was compared to treatment of albumin alone after an induced temporary MCAo. Animals were randomly assigned to 1 of 5 treatment groups: (1) Albumin, 1.25 g/kg (n=10); (2) DHA-Albumin, 1.25 g/kg (n=7); (3) Albumin, 0.63 g/kg (n=7); (4) DHA-Albumin, 0.63 g/kg (n=7); and (5) Normal saline (n=8).
# After preparing the DHA-Albumin complex, Male Sprague-Dawley rats (260-357 g) were anesthetized with halothane and nitrous oxide and subjected to up to 120 minutes of temporary MCAo by retrograde insertion of an intraluminal nylon suture coated with poly-L-lysine through the external carotid artery into the internal carotid artery and middle cerebral artery. Temperature probes were inserted in the rectum and the left temporalis muscle. […] Mean arterial blood pressure (MABP), plasma glucose, blood gases and hematocrit were continuously measured during the procedure.
# The drug (DHA-albumin, 1.25 or 0.63 g/kg; human albumin, 25% solution, 1.25 or 0.63 g/kg; or normal saline) was administered intravenously at the time of reperfusion, i.e., 2 hours from the onset of MCAo. […] Brains were then perfusion-fixed with a mixture of 40% formaldehyde, glacial acetic acid and methanol (FAM, 1:1:8 by volume), and infarct volumes and brain swelling were determined at 9 coronal levels throughout the brain. […]
# [2] = test system: rats subjected to temporary MCAo; test: Brain swelling after temporary MCAo; format: in vivo, Sprague-Dawley rats
# Method: After preparing the DHA-Albumin complex, Male Sprague-Dawley rats (260-357 g) were anesthetized with halothane and nitrous oxide and subjected to up to 120 minutes of temporary MCAo by retrograde insertion of an intraluminal nylon suture coated with poly-L-lysine through the external carotid artery into the internal carotid artery and middle cerebral artery. Temperature probes were inserted in the rectum and the left temporalis muscle. Heating lamps were used to maintain rectal and temporalis muscle temperatures at 36 to 37 degrees Centigrade. In all rats, polyethylene catheters were introduced into the right femoral artery and vein for blood pressure recording, blood sampling, and drug infusion. Mean arterial blood pressure (MABP), plasma glucose, blood gases and hematocrit were continuously measured during the procedure.
# The drug (DHA-albumin, 1.25 or 0.63 g/kg; human albumin, 25% solution, 1.25 or 0.63 g/kg; or normal saline) was administered intravenously at the time of reperfusion, i.e., 2 hours from the onset of MCAo. The animals were allowed to survive for three days. Brains were then perfusion-fixed with a mixture of 40% formaldehyde, glacial acetic acid and methanol (FAM, 1:1:8 by volume), and infarct volumes and brain swelling were determined at 9 coronal levels throughout the brain. Repeated-measures ANOVA with post-hoc Bonferroni tests were used to assess infarct areas. […]
# [3] = test system: rats subjected to fluid percussion injury; test: Fluid percussion head injury (FPI) model, Evans blue extravasation (BBB permeability / brain edema); format: in vivo, Wilstar rats; settings: 24 h post-FPI, continuous infusion by intraperitoneal mini-osmotic pump (DHA-Halb 0.63 g/kg), vs TBI/saline; FIG. 6
# Method: For use in the fluid percussion head injury model, DHA was physically complexed to human albumin by the following method. The complex was prepared under sterile conditions in a laminar-flow hood. DHA (200 mg cis-4,7,10,13,16,19-Docosahexaenoic acid, sodium salt; #D-8768, Sigma Co., St. Louis, Mo.) was dissolved in 500 μl ethanol, and then injected into a 100-ml sealed bottle of Buminate 25% (human serum albumin, USP, 25% solution; Baxter Healthcare Corporation, Westlake Village, Calif.). The solution was thoroughly mixed at room temperature in a G24 environmental incubator shaker (New Brunswick Scientific Co., Edison, N.J.) at 500 rpm for 30 min. Quantitative analysis by mass spectrometry and gas-liquid chromatography indicated 0.999 μg DHA/μl solution. The solution was stored at 4° C. protected from light and oxygen (stored under nitrogen). […]
# Also, the blood brain barrier (BBB) permeability was assessed by measuring Evans blue dye extravasation into the brain, similar to the method described in R. Noor et al., “Hyperthermia masks the neuroprotective effects of tissue plasminogen activator,” Stroke, vol. […]
# The results are shown in FIG. 6, where the bars represent mean values±SEM, and the number of rats in each study is from 8 to 11. The Evans Blue ratio was calculated based on (ng EB/g brain tissue)/(μg EB/g plasma). […]
substance,measurement,setting,value
"Albumin: human serum albumin, USP, 25% solution, given alone as comparator",cortical infarct neuroprotection,"[1]; 1.25 g/kg i.v. at reperfusion, FIG. 2",high-grade neuroprotection
same,integrated striatal infarct volume / subcortical infarct reduction,"[1]; Albumin alone, dose not given, FIG. 3",not able to achieve this effect
same,brain swelling,[2]; 0.63 g/kg i.v. at reperfusion after 2 h MCAo,9.4 ± 7.0%
same,brain swelling,[2]; 1.25 g/kg i.v. at reperfusion after 2 h MCAo,9.2 ± 3.9%
same,"reduction in brain edema (Evans blue extravasation), left (contralateral) hemisphere",[3],48%
same,"reduction in brain edema (Evans blue extravasation), right (damaged side) hemisphere",[3],28%
